Assay: log Pow: distribution coefficient between 1-octanol and water
Conditions: 1-octanol/water

log Pow: 2.83
Compound: CCCCCCOC(C)=O [Hexylacetate]

From US8394442B2, “Process for the preparation of a flavoring concentrate, and a flavoring concentrate” (SYMRISE AG, priority 2007, dated 2013)
